Laboratory results taken from article PMC4525181, “Structural and dynamic insights into the energetics of activation loop rearrangement in FGFR1 kinase” (Nature Communications, 2015).

Protein sequences, listed by entry. Tags and fused reporters are not part of them. Residues count along the entry.
UniProt P11362, 458-765 C488A/C584S limits assumed: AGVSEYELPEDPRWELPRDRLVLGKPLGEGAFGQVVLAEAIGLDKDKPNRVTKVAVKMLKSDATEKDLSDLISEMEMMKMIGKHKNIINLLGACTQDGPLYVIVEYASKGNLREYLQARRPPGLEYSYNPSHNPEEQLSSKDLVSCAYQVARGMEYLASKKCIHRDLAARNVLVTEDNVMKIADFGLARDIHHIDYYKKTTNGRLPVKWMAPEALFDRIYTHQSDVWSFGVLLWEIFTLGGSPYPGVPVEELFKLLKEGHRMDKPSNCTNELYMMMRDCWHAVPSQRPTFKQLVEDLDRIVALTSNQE

Tests used:
[1] = biological target: T1, FGFR1 kinase domain (Homo sapiens, UniProt P11362, C488A/C584S); assay: Isothermal titration calorimetry (ITC) of inhibitors binding to FGFR1; conditions: for -TΔS (ITC) / N (ITC stoichiometry) / ΔG (ITC) / ΔH (ITC): 298.15 K
[2] = biological target: T1, FGFR1 kinase domain; assay: SPR kinetic analysis of inhibitors binding to FGFR1 kinase domain; conditions: read-out: KD (koff/kon), 298 K, pH 7.4

Structure (SMILES) | -TΔS (ITC) [1] [kcal/mol] | N (ITC stoichiometry) [1] | ΔG (ITC) [1] [kcal/mol] | ΔH (ITC) [1] [kcal/mol] | Kd ([1]; read-out: KD (ITC), 298 K) [nM] | Kd [2] [nM]
Cc1cc(CNc2nccc(Nc3cc(CCc4ccccc4)[nH]n3)n2)on1 | -4.0 ± 0.4 | 1.1±0.01 | -9.8 ± 0.1 | -5.7 ± 0.4 | – | –
CCN1CCC(c2ccc(C(=O)Nc3cc(CCc4cc(OC)cc(OC)c4)[nH]n3)cc2)CC1 | 3.0 ± 0.4 | 0.8±0.001 | -12.0 ± 0.1 | -15.0 ± 0.6 | 1.6 | 0.7
